Source: publication PMC11126936, “Reactivating Hippo by drug compounds to suppress gastric cancer and enhance chemotherapy sensitivity” (The Journal of Biological Chemistry, 2024)
Values joined by “and” are separate entries in the source; they are usually repeats but may differ in a detail not shown here. Equal entries are not always repeated. Structures can show the parent of a compound that is named as a salt. One block for each compound: values may come before it.

By UniProt entry, the sequences of proteins in these tests, tags left out. Residues count along the entry.
UniProt P30153, 8-589: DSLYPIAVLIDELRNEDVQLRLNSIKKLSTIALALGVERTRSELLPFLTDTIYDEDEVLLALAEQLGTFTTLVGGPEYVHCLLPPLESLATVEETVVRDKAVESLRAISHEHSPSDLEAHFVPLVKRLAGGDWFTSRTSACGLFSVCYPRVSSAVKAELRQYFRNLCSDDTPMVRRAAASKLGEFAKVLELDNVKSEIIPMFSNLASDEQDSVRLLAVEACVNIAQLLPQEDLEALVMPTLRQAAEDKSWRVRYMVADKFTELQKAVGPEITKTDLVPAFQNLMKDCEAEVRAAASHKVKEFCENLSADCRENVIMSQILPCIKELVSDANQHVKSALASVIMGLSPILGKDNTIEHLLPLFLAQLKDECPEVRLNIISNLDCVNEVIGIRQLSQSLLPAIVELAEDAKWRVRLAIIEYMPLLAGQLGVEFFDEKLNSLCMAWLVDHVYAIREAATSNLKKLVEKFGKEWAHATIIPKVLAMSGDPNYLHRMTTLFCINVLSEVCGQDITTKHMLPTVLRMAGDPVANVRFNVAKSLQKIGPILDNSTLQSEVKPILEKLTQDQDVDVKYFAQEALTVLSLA

Columns and labels:
PP2Aa–STRN3 interaction = PP2Aa–STRN3 interaction (Homo sapiens, UniProt P30153); assay: Second-round validation AlphaScreen, PP2Aa–STRN3 disruption (Table S2); type: binding; set-up: GST; SUMO; made in house; host or cells: E. coli BL21 Codon plus (DE3); settings: 2nd round validation screen
[1] = Second-round AlphaScreen false-positive control with biotin-labeled and His-tagged STRN3 (Table S2)
[2] = Second-round AlphaScreen false-positive control (Table S4); settings: 2nd round validation screen, STRN3-MST2; disruption of protein-bead interactions
[3] = 2nd round validation screen, STRN3-PP2Aa, disruption of protein-bead interactions

Compound: 6-BIO
Inhibition rate (%) (PP2Aa–STRN3 interaction): 82.3828%

Compound: CCN(CCO)CCCOc1ccc2c(Nc3cc(CC(=O)Nc4cccc(F)c4)n[nH]3)ncnc2c1 [AZD1152HQPA]
Inhibition rate (%) (PP2Aa–STRN3 interaction): 15.3585%
False positive rate (%) [1, 3]: 7.562%

Compound: O=C([O-])c1ccccc1[O-].[Bi+3].[OH-] [Bismuth subsalicylat]
Inhibition rate (%) (PP2Aa–STRN3 interaction): 15.8787%
False positive rate (%) [1, 3]: -5.993%

Compound: COc1cc(-c2ccc(N=Nc3ccc4c(S(=O)(=O)[O-])cc(S(=O)(=O)[O-])c(N)c4c3O)c(OC)c2)ccc1N=Nc1ccc2c(S(=O)(=O)[O-])cc(S(=O)(=O)[O-])c(N)c2c1O.[Na+].[Na+].[Na+].[Na+] [CHICAGO SKY BLUE 6B]
Inhibition rate (%) (PP2Aa–STRN3 interaction): 96.9459%
False positive rate (%) [1, 3]: 90.126%

Compound: CCN(CC)C(=S)SSC(=S)N(CC)CC [DSF, disulfiram]
Inhibition rate (%) (PP2Aa–STRN3 interaction): 73.2412%
False positive rate (%) [1, 3]: 31.6%

Compound: CCN1c2cc(N)ccc2-c2ccc(N)cc2C1c1ccccc1 (stereo not shown) [Dihydroethidium]
Inhibition rate (%) (PP2Aa–STRN3 interaction): 80.6971%
False positive rate (%) [1, 3]: 78.082%

Compound: O=C(O[C@@H]1Cc2c(O)cc(O)cc2O[C@@H]1c1cc(O)c(O)c(O)c1)c1cc(O)c(O)c(O)c1 [EPIGALLOCATECHIN-3-MONOGALLATE]
Inhibition rate (%) (PP2Aa–STRN3 interaction): 72.0758%
False positive rate (%) [1, 3]: 62.6993%

Compound: CCN(c1cc(C#CCN2CCOCC2)cc(C(=O)NCc2c(C)cc(C)[nH]c2=O)c1C)[C@H]1CC[C@H](N(C)CCOC)CC1 [EPZ011989]
Inhibition rate (%) (PP2Aa–STRN3 interaction): 6.841%
False positive rate (%) [1, 3]: 4.933%

Compound: CC(C)OC(=O)[C@H](C)N[P@](=O)(CO[C@H](C)Cn1cnc2c(N)ncnc21)Oc1ccccc1 [GS-7340 Tenofovir alafenamide, Tenofovir alafenamide]
Inhibition rate (%) (PP2Aa–STRN3 interaction): 4.026%
False positive rate (%) [1]: 2.988%

Compound: Oc1cc2c(cc1O)C1c3ccc(O)c(O)c3OCC1(O)C2 (stereo not shown) [HAEMATOXYLIN]
Inhibition rate (%) (PP2Aa–STRN3 interaction): 74.6512%
False positive rate (%) [1, 3]: 31.7503%

Compound: NNc1nncc2ccccc12 [Hydralazine HCl]
False positive rate (%) [2]: 58.8651%

Compound: O=C([O-])c1ccccc1-c1c2cc(Br)c(=O)cc-2oc2[c]([Hg+])c([O-])c(Br)cc12.[Na+].[Na+].[OH-] [Merbromin]
Inhibition rate (%) (PP2Aa–STRN3 interaction): 77.9083%

Compound: O=C1c2c(O)ccc(O)c2C(=O)c2c(NCCNCCO)ccc(NCCNCCO)c21 [Mitoxantrone HCl]
Inhibition rate (%) (PP2Aa–STRN3 interaction): 90.5827%

Compound: COc1cccc(NCC(F)Cn2c3ccc(Br)cc3c3cc(Br)ccc32)c1 (stereo not shown) [P7C3-A20]
Inhibition rate (%) (PP2Aa–STRN3 interaction): 22.2055%

Compound: OC(CNc1ccccc1)Cn1c2ccc(Br)cc2c2cc(Br)ccc21 (stereo not shown) [P7C3]
Inhibition rate (%) (PP2Aa–STRN3 interaction): 35.8997%

Compound: O=C(/C=C/c1ccc2ccccc2n1)c1ccncc1 [PFK-015]
Inhibition rate (%) (PP2Aa–STRN3 interaction): 5.405%

Compound: CC(=O)[O][Hg][c]1ccccc1 [Phenylmercuric acetate]
Inhibition rate (%) (PP2Aa–STRN3 interaction): 95.0884%
False positive rate (%) [1]: -7.3867%

Compound: CNC(=O)c1ccccc1Nc1nc(Nc2ccc(N3CCOCC3)cc2OC)ncc1Cl [TAE-226]
Inhibition rate (%) (PP2Aa–STRN3 interaction): 28.5479%

Compound: COc1ccc(C(=C2C(=O)Nc3ccccc32)c2ccc(OC)cc2)cc1 [TAS-301]
Inhibition rate (%) (PP2Aa–STRN3 interaction): 39.3492%

Compound: COc1ccc(C(=O)O[C@H]2CC[C@@]3(C)[C@@H]4CC[C@H]5[C@]6(O)C[C@H](O)[C@@]7(O)[C@@H](CN8C[C@@H](C)CC[C@H]8[C@@]7(C)O)[C@]6(O)C[C@@]53O[C@]24O)cc1OC [Veratridine]
Inhibition rate (%) (PP2Aa–STRN3 interaction): 73.6887%

Compound: COc1ccc(N(C(=O)Oc2c(C)cccc2C)c2ccnc(Nc3ccc(N4CCN(C)CC4)cc3)n2)c(OC)c1 [WH-4-023]
Inhibition rate (%) (PP2Aa–STRN3 interaction): 34.4064%

Compound: Chlorophyllin
Inhibition rate (%) (PP2Aa–STRN3 interaction): 68.6366%
False positive rate (%) [1, 3]: 67.5653%

Continued, in another order:

Inhibition rate (%) (PP2Aa–STRN3 interaction): 57.2242%
Compound: O=c1c2ccccc2[se]n1-c1ccccc1 [Ebselen]
False positive rate (%) [1, 3]: -8.079%

Inhibition rate (%) (PP2Aa–STRN3 interaction): -8.372%
Compound: CC(C)(O)CNc1nc(Nc2ccnc(C(F)(F)F)c2)nc(-c2cccc(C(F)(F)F)n2)n1 [Enasidenib]
False positive rate (%) [1, 3]: -5.133%

Inhibition rate (%) (PP2Aa–STRN3 interaction): 84.0217%
Compound: Cc1cc(-c2ccc(/N=N/c3ccc4c(S(=O)(=O)O)cc(S(=O)(=O)O)c(N)c4c3O)c(C)c2)ccc1/N=N/c1ccc2c(S(=O)(=O)O)cc(S(=O)(=O)O)c(N)c2c1O [Evans blue]
False positive rate (%) [1, 3]: 75.2692%

Inhibition rate (%) (PP2Aa–STRN3 interaction): -1.182%
Compound: CCCOc1ccn2c(C(C)=O)cc(-c3ccccc3S(C)(=O)=O)c2c1 [GSK2801]
False positive rate (%) [1, 3]: -9.031%

Inhibition rate (%) (PP2Aa–STRN3 interaction): 40.7176%
Compound: COC(=O)C1=C(C)NC(C)=C(C(=O)OC(C)(C)CN(C)CCC(c2ccccc2)c2ccccc2)C1c1cccc([N+](=O)[O-])c1 (stereo not shown) [Lercanidipine]
False positive rate (%) [1, 3]: 39.4625%

Inhibition rate (%) (PP2Aa–STRN3 interaction): -1.473%
Compound: CC(=O)Oc1cc(C)c(OC(C)=O)c2ccccc12 [Menadiol Diacetate]
False positive rate (%) [1, 3]: -3.581%

Inhibition rate (%) (PP2Aa–STRN3 interaction): 92.1175%
Compound: O=[N+]([O-])c1ccc(O)c2ncccc12 [Nitroxoline]
False positive rate (%) [1, 3]: 76.3709%

Inhibition rate (%) (PP2Aa–STRN3 interaction): 5.296%
Compound: NCCOc1cc(C(=O)Nc2cc(OCCN)c3ccccc3n2)nc(C(=O)Nc2cc(OCCN)c3ccccc3n2)c1 [Pyridostatin]
False positive rate (%) [1, 3]: 16.6764%

Inhibition rate (%) (PP2Aa–STRN3 interaction): 64.6668%
Compound: COc1cc(N2CCC(N3CCN(C)CC3)CC2)ccc1Nc1ncc(Cl)c(Nc2ccccc2S(=O)(=O)C(C)C)n1 [TAE684 (NVP-TAE684), TAE684]
False positive rate (%) [1, 3]: 55.1957%

Inhibition rate (%) (PP2Aa–STRN3 interaction): 7.949%
Compound: Cc1ccccc1C(=O)Nc1ccc(C(=O)N2CCCC(O)c3cc(Cl)ccc32)c(C)c1 (stereo not shown) [Tolvaptan]
False positive rate (%) [1, 3]: 11.1343%

Inhibition rate (%) (PP2Aa–STRN3 interaction): 56.3097%
Compound: COc1cc2c(NC3CCN(CC4CCCCC4)CC3)nc(N3CCCN(C(C)C)CC3)nc2cc1OCCCN1CCCCC1 [UNC0631]
False positive rate (%) [1, 3]: -14.7734%

Inhibition rate (%) (PP2Aa–STRN3 interaction): 2.039%
Compound: COc1cc2c(Nc3ccc(Br)cc3F)ncnc2cc1OCC1CCN(C)CC1 [Vandetanib (ZD6474), Vandetanib]
False positive rate (%) [1, 3]: -3.172%

Inhibition rate (%) (PP2Aa–STRN3 interaction): 61.1496%
Compound: COC(=O)/C=C/c1cccc(N(Cc2ccc(-c3ccc(N(C)C)cc3)cc2)C(=O)C2CCCCC2)c1 [fexaramine]
False positive rate (%) [1, 3]: 58.3424%

Inhibition rate (%) (PP2Aa–STRN3 interaction): 92.6795% and 88.283%
Compound: Glycerite
False positive rate (%) [1, 3]: 69.5101% and 67.0896%
